Literature values in patent US20220072149A1, “BIOLOGICALLY ACTIVE CLUSTER OF MOLECULES” (priority 2018, published 2022).

Details: in monkeys; cited from earlier work

## ado-trastuzumab emtansine: conjugate of DM1 (emtansine) and trastuzumab
  enhancement of the tolerable dose of DM1 by conjugation to trastuzumab: at least two-fold
